By UniProt entry, the sequences of proteins in these tests, tags left out. Where a name states a change or a piece, a line headed by the entry shows the natural chain unless it says otherwise.
UniProt P08253: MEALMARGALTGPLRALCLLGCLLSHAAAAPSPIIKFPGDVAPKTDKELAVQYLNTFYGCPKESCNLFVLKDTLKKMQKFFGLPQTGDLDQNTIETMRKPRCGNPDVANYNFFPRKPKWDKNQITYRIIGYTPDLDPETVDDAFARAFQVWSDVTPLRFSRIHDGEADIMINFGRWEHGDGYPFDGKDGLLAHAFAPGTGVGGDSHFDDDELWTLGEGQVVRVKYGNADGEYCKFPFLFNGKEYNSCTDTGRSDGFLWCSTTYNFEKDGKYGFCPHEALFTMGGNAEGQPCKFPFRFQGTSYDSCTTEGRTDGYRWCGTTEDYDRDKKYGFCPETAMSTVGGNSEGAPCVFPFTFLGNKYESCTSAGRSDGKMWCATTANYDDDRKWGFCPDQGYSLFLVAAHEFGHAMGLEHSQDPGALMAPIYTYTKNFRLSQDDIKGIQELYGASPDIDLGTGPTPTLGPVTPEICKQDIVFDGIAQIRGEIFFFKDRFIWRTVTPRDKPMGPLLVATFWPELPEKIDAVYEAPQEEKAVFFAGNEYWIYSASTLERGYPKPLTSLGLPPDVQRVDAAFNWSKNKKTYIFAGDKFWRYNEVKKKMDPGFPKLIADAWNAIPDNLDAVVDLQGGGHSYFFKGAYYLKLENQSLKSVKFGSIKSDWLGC

According to ChEMBL document CHEMBL3632521, “A study of ad-proline peptidomimetic inhibitor of melanoma and endothelial cell invasion through activity towards MMP-2 and MMP-9” (Medchemcomm, 2015):

Molecular target: 72 kDa type IV collagenase (Homo sapiens, UniProt P08253)
Assay: Inhibition of gelatinolytic activity of pro-MMP2 in human A375P cells assessed as reduction in active form of protein by gelatin zymography
Format: cell-based

inhibition: Dose-dependent effect
Compound: COc1ccc(C(=O)N[C@@H]2C[C@H](C(=O)NO)N(S(=O)(=O)c3ccc(Cl)c(Cl)c3)C2)c(OC)c1
